miR-21 FLuc: miR-21 reporter, rising signal; Potency, µM (titrated, usually from 38.3 µM), without a hit: at the highest dose reporter change, positive = more light; AID 2288; 340,000 tested, under 10 active; HeLa miR-21 FLuc reporter, luciferase, 48 h; active = well fitted rising curve with a large enough effect; inconclusive = small, poorly fitted or top-dose-only effect; inactive = no such curve, though single readings can be large or run the other way;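 note: % of control where 0% means no effect; miR-21 action dims this reporter so a rising signal means less miR-21 action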
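HeLa cells stably expressing CMV-driven firefly luciferase with a downstream miR-21 binding sequence, endogenously expressing miR-21, were treated with titrations (up to about 40uM final) for 48 hours at 37 degree Celsius. Luciferase luminescence was read after lysis.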
uPA generation: inhibitors of cell surface uPA generation. cell surface uPA generation assay, qHTS. Potency, µM (titrated, usually from 38.3 µM), inactives show at the highest dose activity change, negative = inhibition, hits mostly inhibitors. actives 0.31% (n = 330,000). AID 540303; active = well fitted inhibition curve with a large enough effect; inconclusive = small, poorly fitted or top-dose-only effect; inactive = no such curve, though single readings can be large or run the other way; tested in mouse RAW 264.7 cells; note: potency is the fitted concentration of half-maximal effect; % is set by controls: 0 for no effect and ±100 for the full control effect; nearly all actives have a fitted effect of over 55% in size
Giardia killer: Giardia lamblia killing; Giardia lamblia trophozoite viability; activity change, % at 7.66 µM, hits read low; actives 0.15% (n = 340,000); in the data active = activity change below about -80%; inconclusive = between about -30% and that limit;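 note: parasites exposed to compound for two days anaerobically before the ATP read; % is set by controls: 0 for no effect and ±100 for the full control effect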
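Luminescent ATP signal served as the viability read-out, measured 15-30 min after adding ATP detection reagent to trophozoites that had been incubated with compounds for 48 hrs at 37 deg C anaerobically at 100 cells/well.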
GALK inh: blocks human galactokinase activity | P51570 | Purified GALK, Kinase-Glo residual ATP luminescence | Potency, µM (series often up to 57.5 µM), inactives show at the top dose activity change, negative = inhibition, usual class: inhibitors | actives 0.007% (n = 270,000); note: potency is the fitted concentration of half-maximal effect; % is set by controls: 0 for no effect and ±100 for the full control effect
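Quantitative HTS: GALK 5 nM, ATP 35 uM, galactose 100 uM, 1 h room temperature, then luciferase-based ATP detection.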
Coupling enz: counter-screen for Giardia aldolase inhibitors: coupling enzyme system; coupling enzyme system counterscreen, AmpLite Red fluorescence; activity change, negative = inhibition, % at 58.2 µM, hits read low; actives 0.67% (n = 290,000); AID 2472; in the data active = activity change below about -30%; note: % is set by controls: 0 for no effect and ±100 for the full control effect
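Counterscreen of the coupled detection system alone, without aldolase: glyceraldehyde-3-phosphate coupling enzymes plus AmpLite Red readout. Compounds at 57.5 uM final, 10 min RT preincubation, 20 min RT reaction, fluorescence 525/598 nm.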
B2AR arrestin: agonists driving beta-arrestin recruitment to human beta2-adrenergic receptor; P07550; beta-arrestin recruitment to beta2AR, cell-based reporter; actives 0.02% (n = 330,000); AID 492947; Potency, µM (series often up to 46.1 µM), for the others: at the top dose activation, actives largely listed as activators;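 note: potency is the fitted concentration of half-maximal effect; 0% = DMSO controls and full agonism = EC100 isoproterenol or metaproterenol; nearly all actives have a fitted effect of over 65% in size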
Numbers without * were called inactive; ? = inconclusive; . = no result given; ! = not active in a repeat. Rows were chosen to be rich in hits. Some 0.92% of all compounds tested hit in one or more screens of this group. Unless noted, calls come from the whole dose curve; as a rule, active = well fitted curve in the direction sought with a large enough effect; inconclusive = small, poorly fitted or top-dose-only effect, or another doubt; inactive = no such curve, though single readings can be large; an effect the other way counts as inactive or inconclusive.

SMILES,miR-21 FLuc,uPA generation,Giardia killer,GALK inh,Coupling enz,B2AR arrestin
O=C(Nc1nc2n(n1)C(c1ccccc1)C=C(c1ccccc1)N2)c1ccc(Cl)c([N+](=O)[O-])c1 (stereo unspecified),-6%,.,.,.,.,.
O=C1C2=C(S[C@@H]3O[C@H](CO)[C@@H](O)[C@H](O)[C@H]3O2)C(=O)c2ccccc21,.,.,.,.,-40*,.
COc1c(O)cc2c(c1O)[C@@H]1O[C@H](CO)[C@@H](O)[C@H](O)[C@H]1OC2=O,-1%,4%,-18,-1%,-1,-1%
CC(=O)N(C1=C(N2CCOCC2)C(=O)c2ccccc2C1=O)c1ccc(C(=O)O)cc1,?,3%,10,1%,-54*,0%
CC(=O)N(C)C1=C(N2CCOCC2)C(=O)c2ccccc2C1=O,29%,.,-26,1%,-56*,-1%
N/C(=N\OC(=O)N1CCOCC1)c1ccc(Br)cc1,4%,10µM*,-26,7%,2,0%
C/C(=N/Nc1ccc(C(=O)O)cc1)c1ccc(O)c(O)c1O,-62%,8%,-4,-1%,-34*,-1%
CC(=O)O[C@H](C(=O)O[C@@H]1C[C@@H](CCC[C@H]2O[C@H](C(=O)OC(C)C)CC[C@@H]2C)O[C@@H](CC#N)C1)c1ccccc1,.,.,.,.,4,.
O=c1c([N+](=O)[O-])cccn1Cc1cccc(Br)c1,-2%,-6%,-85*,.,0,1%
COC(=O)CCC(=O)OC1(C)C(=O)C2=CN(CCCCO)C(c3ccc(OC)cc3)=CC2=C(Br)C1=O (stereo unspecified),3%,.,.,.,-47*!,-1%
COC(=O)CCC(=O)OC1(C)C(=O)C2=CN(CCc3ccccn3)C(c3ccc(OC)cc3)=CC2=C(Br)C1=O (stereo unspecified),.,-2%,6,.,-8,.
COC(=O)CCC(=O)OC1(C)C(=O)C2=CN(C(CO)CO)C(c3ccc(OC)cc3)=CC2=C(Br)C1=O (stereo unspecified),1%,.,.,-1%,-48*!,-1%
COC(=O)CCC(=O)OC1(C)C(=O)C2=CN(Cc3ccc4c(c3)OCO4)C(c3ccc(OC)cc3)=CC2=C(Br)C1=O (stereo unspecified),.,2%,23,.,-3,.
COC(=O)CCC(=O)OC1(C)C(=O)C2=CN(CCN3CCOCC3)C(c3ccc(OC)cc3)=CC2=C(Br)C1=O (stereo unspecified),3%,.,.,-4%,-37*!,0%
CC1(OC(=O)CCc2ccccc2)C(=O)C=C2C=C(c3ccc(C#N)cc3)N(CC3CC3)C=C2C1=O (stereo unspecified),0%,12%,1,-2%,-13,0%
CC1(OC(=O)CCc2ccccc2)C(=O)C=C2C=C(c3ccc(C#N)cc3)N(CCN3CCOCC3)C=C2C1=O (stereo unspecified),7%,4%,8,5%,-31*!,-1%
COc1cc2c(cc1OC)-c1cc3nc4ccccc4nc3n1C(C)(C)C2,.,.,.,.,-3,.
Cc1ccc(O)c(NC(=O)c2ccc(Br)c(S(=O)(=O)N3CCCCC3)c2)c1,27%,.,.,.,.,.
Oc1ccc(N=Cc2ccc(O)c(O)c2)cc1,22%,-6%,-1,-3%,-46*,?
O=C(CC1CCS(=O)(=O)C1)Nc1ccc[nH]c1=O (stereo unspecified),-2%,-7%,5,1%,-52*,0%
O=C(COC(=O)CC1CCS(=O)(=O)C1)Nc1ccc(F)cc1 (stereo unspecified),.,-18%,23,.,.,0%
CN(C)c1ncc2nc(-c3ccccc3)c(=O)n(CCC#N)c2n1,.,.,.,.,2,.
CCc1ccc2[nH]c(=O)c(CN(Cc3ccccc3)Cc3nnnn3C(C)(C)C)cc2c1,.,.,26,.,.,.
CCc1ccc2[nH]c(=O)c(CN(Cc3ccc(OC)cc3)Cc3nnnn3CCOC)cc2c1,-8%,-7%,-1,2%,-74*,0%
COc1cccc(C(=O)Nc2c(C(=O)NC(C)(C)C)oc3ccccc23)c1,-5%,.,.,.,.,.
COc1ccc(Nc2nc(-c3sc(C)nc3C)cs2)c(OC)c1,-5%,4.5µM*,-13,-5%,0,0%
C=CCCC(=O)Nc1nc(C)c(-c2csc(Nc3ccccc3OC)n2)s1,24%,3.5µM*,28,-2%,-4,0%
CCC(C)NC(=O)c1cccc(NC(=O)c2nsc3ccccc23)c1 (stereo unspecified),-41%,.,.,.,.,.
Cc1cccc(N2CCN(C(=O)c3cnn(-c4cccc(Cl)c4C)c3C3CCNCC3)CC2)c1C,16%,.,.,.,.,.
Cc1ccc(N/N=C/c2c(C)c(C#N)c(=O)n(C)c2O)cc1C,-2%,2%,-5,2%,-58*,0%
COc1cc(S(=O)(=O)Nc2ccc(C)cc2)ccc1N=Cc1c(C)c(C#N)c(=O)n(C)c1O,0%,1%,24,7%,-5,-1%
COC(=O)C1C2C=CC3(CN(CC4CCCO4)C(=O)C13)O2 (stereo unspecified),-2%,1%,17,1%,-79*,0%
COCCCN1CC23C=CC(O2)C(C(=O)OC)C3C1=O (stereo unspecified),.,9%,-4,.,.,.
Oc1cc2c(cc1O)[C@@H]1c3ccc(O)c(O)c3OC[C@]1(O)C2,.,.,.,.,-15,.
Cc1cc(SCC(=O)N/N=C/c2ccc(O)c(O)c2O)c(C)cc1Br,25%,-7%,-4,0%,-32*,0%
COc1ccccc1N1CCN(c2nc3ccc(C)cc3nc2-n2nc(C)cc2C)CC1,6%,.,.,.,.,.
Cc1ccc2c(c1)C(=O)C(=O)N2Cc1ccc(C(F)(F)F)cc1,.,3.5µM*,9,.,.,1%
Oc1ccc(COc2cccc3ccccc23)c2cccnc12,.,.,.,.,.,0%
COc1ccccc1CNC(=O)c1cnn(-c2ccc(F)cc2F)c1C1CCN(C(=O)OC(C)(C)C)CC1,7%,.,.,.,.,.
CC1=C(n2nnc([N+](=O)[O-])n2)C(c2cccnc2)C(C#N)=C(N)O1 (stereo unspecified),?,-14%,-13,3%,-67*,-1%
CCOc1ccc(/C=C/c2c([N+](=O)[O-])c(=O)n(C)c(=O)n2C)cc1,17%,-19%,25,-3%,0,0%
CCc1ccc(/C=C/c2c([N+](=O)[O-])c(=O)n(C)c(=O)n2C)cc1,?,6.3µM*,-4,-4%,3,0%
CCc1ccccc1NNC(=O)c1sccc1Cl,.,.,22,.,.,.
COc1ccc(Oc2c(OC)cc([N+](=O)[O-])c3ncccc23)cc1,.,-5%,0,.,.,.
COc1cc(NC(C)CCCN)c2ncccc2c1Oc1ccccc1 (stereo unspecified),-7%,2%,6,3%,-30*,0%

Arranged by count of non-hydrogen atoms (smallest number first): some entries from above
SMILES,miR-21 FLuc,uPA generation,Giardia killer,GALK inh,Coupling enz,B2AR arrestin
CCc1ccccc1NNC(=O)c1sccc1Cl,.,.,22,.,.,.
Oc1ccc(COc2cccc3ccccc23)c2cccnc12,.,.,.,.,.,0%
CCOc1ccc(/C=C/c2c([N+](=O)[O-])c(=O)n(C)c(=O)n2C)cc1,17%,-19%,25,-3%,0,0%
COc1cc(NC(C)CCCN)c2ncccc2c1Oc1ccccc1 (stereo unspecified),-7%,2%,6,3%,-30*,0%
COc1ccccc1CNC(=O)c1cnn(-c2ccc(F)cc2F)c1C1CCN(C(=O)OC(C)(C)C)CC1,7%,.,.,.,.,.
